Test results as given in ChEMBL document CHEMBL5321206, “New amidine-benzenesulfonamides as iNOS inhibitors for the therapy of the triple negative breast cancer” (Eur J Med Chem, 2023).

Biological target: T1, Nitric oxide synthase 3 (Bos taurus, UniProt P29473)
T1 sequence (P29473 whole entry): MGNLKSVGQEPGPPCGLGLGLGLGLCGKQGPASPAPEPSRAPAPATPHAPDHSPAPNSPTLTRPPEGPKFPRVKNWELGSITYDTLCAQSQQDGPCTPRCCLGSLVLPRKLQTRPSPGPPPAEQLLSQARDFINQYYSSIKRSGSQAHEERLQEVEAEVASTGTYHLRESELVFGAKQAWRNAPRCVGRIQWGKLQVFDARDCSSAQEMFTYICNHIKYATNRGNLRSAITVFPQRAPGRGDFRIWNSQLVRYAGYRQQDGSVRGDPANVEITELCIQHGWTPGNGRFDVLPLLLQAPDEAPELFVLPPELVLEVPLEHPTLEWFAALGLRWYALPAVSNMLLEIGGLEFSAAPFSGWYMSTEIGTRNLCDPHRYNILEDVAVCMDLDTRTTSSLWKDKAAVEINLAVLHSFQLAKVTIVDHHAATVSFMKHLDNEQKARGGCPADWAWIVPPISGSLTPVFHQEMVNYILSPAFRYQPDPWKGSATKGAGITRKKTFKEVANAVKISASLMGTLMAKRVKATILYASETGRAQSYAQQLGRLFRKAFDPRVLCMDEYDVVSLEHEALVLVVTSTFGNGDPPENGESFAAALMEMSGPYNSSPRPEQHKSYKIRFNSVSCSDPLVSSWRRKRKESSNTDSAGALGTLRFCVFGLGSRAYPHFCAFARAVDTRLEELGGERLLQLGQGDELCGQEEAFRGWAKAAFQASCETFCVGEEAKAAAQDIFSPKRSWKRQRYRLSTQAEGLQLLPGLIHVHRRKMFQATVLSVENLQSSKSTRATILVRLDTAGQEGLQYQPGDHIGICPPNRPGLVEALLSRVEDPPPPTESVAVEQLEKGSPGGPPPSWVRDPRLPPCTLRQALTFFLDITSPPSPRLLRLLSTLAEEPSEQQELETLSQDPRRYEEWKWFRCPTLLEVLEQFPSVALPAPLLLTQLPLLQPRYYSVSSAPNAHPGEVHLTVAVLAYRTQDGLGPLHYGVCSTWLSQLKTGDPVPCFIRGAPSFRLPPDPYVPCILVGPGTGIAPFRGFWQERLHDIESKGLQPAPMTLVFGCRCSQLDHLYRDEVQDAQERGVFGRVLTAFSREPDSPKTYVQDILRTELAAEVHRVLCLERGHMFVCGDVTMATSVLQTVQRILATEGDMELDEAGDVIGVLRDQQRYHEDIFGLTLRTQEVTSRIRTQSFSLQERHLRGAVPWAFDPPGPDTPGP
Assay: Inhibition of full length N-terminal his-tagged bovine eNOS (2 to 1205 residues) expressed in Escherichia coli preincubated for 15 mins followed by NADPH addition and measured after 30 mins by HPLC analysis
Summary of the method: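 Recombinant bovine eNOS in HEPES buffer with 2 mM CaCl2 plus the same cofactor mix as the iNOS assay (DTT, BSA, FMN, FAD, BH4, calmodulin, 10 μM L-Arg). Compound pre-incubated 15 min at 37 °C. NADPH-started reaction run 30 min at 37 °C, quenched with cold CH3CN. Read by OPA/NAC fluorescence HPLC. […] IC50 from seven concentrations in triplicate.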

Compound: CC(=N)NCc1cccc(CN)c1 [1400W]
- IC50: > 50 µM
